Values joined by “and” are separate entries in the source; they are usually repeats but may differ in a detail not shown here. Equal values may be shown once. Read-outs that look alike come from different tables or passages of the source.
What was measured:
[1] = molecular target: Transthyretin (TTR), N-terminal 6-histidine tag in place of the signal sequence (human) (UniProt P02766); assay: SPR; BIACORE3000; tetrameric His-TTR immobilised on Ni2+-charged NTA chip; Aβ 2.5-50 µM injected for 30 s; HBS-P (10 mM HEPES pH 9.0, 0.15 M NaCl, 0.005% Tween20, 0.5% DMSO); 1:1 Langmuir fit; apparent; three independent experiments
[2] = molecular target: Transthyretin (TTR), N-terminal 6-histidine tag in place of the signal sequence (human) (UniProt P02766); assay: as above; remark: listed apart in the source

Amyloid-beta 1-40 peptide (peptide; other documents disagree on this pair)
Kd [1]: 38 µM and 53 µM and 98 µM | Kd [2]: 35 to 98 µM

Source: paper PMC4191344, “Identification and characterization of Aβ peptide interactors in Alzheimer’s disease by structural approaches” (Frontiers in Aging Neuroscience, 2014)
